Chains of the proteins cited; added tags and fusions are not shown. Residues count along the entry.
UniProt A9XX24, 19-536: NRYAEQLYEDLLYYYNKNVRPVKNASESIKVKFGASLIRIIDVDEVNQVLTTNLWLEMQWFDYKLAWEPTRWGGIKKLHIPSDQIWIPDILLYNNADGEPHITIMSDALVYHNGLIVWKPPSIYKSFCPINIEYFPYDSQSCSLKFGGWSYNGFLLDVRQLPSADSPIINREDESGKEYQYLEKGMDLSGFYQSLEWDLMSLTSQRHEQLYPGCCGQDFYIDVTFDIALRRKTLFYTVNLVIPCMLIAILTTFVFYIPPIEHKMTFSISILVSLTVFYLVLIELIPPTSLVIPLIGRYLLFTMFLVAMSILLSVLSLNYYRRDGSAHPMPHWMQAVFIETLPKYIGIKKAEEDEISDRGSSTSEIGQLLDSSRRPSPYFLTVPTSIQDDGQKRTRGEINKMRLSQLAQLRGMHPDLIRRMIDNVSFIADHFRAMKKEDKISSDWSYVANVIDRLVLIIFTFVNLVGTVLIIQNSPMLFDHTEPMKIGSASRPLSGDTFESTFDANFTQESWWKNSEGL

In paper PMC3362318 (Invertebrate Neuroscience, 2012):

Assays:
Hco-L-AChR2 = molecular target: T1, Hco-L-AChR2 (Haemonchus contortus, UniProt D6MYE9+D6MYF3+D6MYF4); test: two-electrode voltage clamp, Xenopus oocytes, peak current; type: cell-based; settings: agonist; -60 mV, 1 mM external CaCl2, pH 7.3, BAPTA-AM treated
T1 sequence (D6MYE9 21-498): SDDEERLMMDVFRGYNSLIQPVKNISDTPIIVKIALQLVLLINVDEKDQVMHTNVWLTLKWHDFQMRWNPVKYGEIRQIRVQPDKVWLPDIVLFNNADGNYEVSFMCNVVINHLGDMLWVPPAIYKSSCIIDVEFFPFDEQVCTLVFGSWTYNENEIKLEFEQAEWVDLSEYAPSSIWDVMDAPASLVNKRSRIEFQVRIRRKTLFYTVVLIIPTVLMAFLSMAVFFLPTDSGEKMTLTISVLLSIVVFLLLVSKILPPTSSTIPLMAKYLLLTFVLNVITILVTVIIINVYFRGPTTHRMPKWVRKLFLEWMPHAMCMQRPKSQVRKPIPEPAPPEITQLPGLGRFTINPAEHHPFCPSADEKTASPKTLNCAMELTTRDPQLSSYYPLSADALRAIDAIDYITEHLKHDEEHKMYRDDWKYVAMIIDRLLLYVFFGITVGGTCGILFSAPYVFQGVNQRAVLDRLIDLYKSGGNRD
T1 sequence (D6MYF3 20-512): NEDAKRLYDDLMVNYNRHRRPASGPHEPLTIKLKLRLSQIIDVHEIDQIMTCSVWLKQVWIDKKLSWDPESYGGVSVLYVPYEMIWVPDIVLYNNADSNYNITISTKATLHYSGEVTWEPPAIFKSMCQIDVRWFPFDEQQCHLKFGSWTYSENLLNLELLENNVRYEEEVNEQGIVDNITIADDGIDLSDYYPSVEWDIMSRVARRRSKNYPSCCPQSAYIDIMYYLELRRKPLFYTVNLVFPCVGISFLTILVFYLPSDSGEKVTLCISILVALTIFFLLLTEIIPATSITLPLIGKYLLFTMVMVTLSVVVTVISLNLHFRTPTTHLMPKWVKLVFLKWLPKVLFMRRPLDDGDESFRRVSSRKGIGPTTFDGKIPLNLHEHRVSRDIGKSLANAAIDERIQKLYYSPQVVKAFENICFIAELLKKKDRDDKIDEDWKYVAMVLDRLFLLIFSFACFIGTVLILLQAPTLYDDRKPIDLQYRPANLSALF
T1 sequence (D6MYF4 22-504): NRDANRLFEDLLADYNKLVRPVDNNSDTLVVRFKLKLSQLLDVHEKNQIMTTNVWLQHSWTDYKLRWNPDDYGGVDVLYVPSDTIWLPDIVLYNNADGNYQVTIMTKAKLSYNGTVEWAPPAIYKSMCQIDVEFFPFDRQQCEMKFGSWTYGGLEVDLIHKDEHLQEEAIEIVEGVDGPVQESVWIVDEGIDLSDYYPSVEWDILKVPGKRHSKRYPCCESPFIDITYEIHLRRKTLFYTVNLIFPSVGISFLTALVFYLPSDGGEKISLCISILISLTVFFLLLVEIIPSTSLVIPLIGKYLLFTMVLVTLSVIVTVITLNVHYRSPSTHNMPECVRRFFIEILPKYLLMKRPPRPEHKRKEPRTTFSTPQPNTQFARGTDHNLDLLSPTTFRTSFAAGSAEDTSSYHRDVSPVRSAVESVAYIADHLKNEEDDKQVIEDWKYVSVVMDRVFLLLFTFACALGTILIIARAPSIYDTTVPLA

Hco-L-AChR1 = Hco-L-AChR1 (Haemonchus contortus, UniProt A9XX24+D6MYE9+D6MYF3+D6MYF4); test: two-electrode voltage clamp, Xenopus oocytes, dose-response; type: cell-based

With `CC(=O)OCC[N+](C)(C)C` [Ach, acetylcholine] the “two-electrode voltage clamp, Xenopus oocytes, peak current” value (Hco-L-AChR2) was “Hco-L-AChR2 potency series was: pyrantel > acetylcholine > nicotine > levamisole” and the EC50 (Hco-L-AChR1) was 5.8 ± 0.5 µM.
